The values that follow come from US20030041357A1, “Herbicide resistant plants” (priority 1996, published 2003).

In the assay the test system is pDV6 plants expressing both glyphosate resistance genes and GST. Put plainly: Pre-em/post-em herbicide treatment of DV6 plants (Table 1). The note with it: pDV6 #71. It is filed as in vivo, Tobacco.

As to `O=c1nn[nH][nH]1`, the “% Phytotoxicity (mean, 21 DAT)” value is, setting by setting: (pre-em rate 200, then post-em Glyphosate 800 g/ha) 0%; (pre-em rate 200, no post-em treatment) 0%.
